In patent US8748435B2, “Pyrazolo pyrimidine derivatives” (Novartis AG, priority 2011, dated 2014):
Where a name gives a salt, the structure may show the parent alone.

Chains of the proteins cited; added tags and fusions are not shown. Lines headed by an entry give the natural chain unless they say otherwise; changes in a name come on top.
UniProt P46093: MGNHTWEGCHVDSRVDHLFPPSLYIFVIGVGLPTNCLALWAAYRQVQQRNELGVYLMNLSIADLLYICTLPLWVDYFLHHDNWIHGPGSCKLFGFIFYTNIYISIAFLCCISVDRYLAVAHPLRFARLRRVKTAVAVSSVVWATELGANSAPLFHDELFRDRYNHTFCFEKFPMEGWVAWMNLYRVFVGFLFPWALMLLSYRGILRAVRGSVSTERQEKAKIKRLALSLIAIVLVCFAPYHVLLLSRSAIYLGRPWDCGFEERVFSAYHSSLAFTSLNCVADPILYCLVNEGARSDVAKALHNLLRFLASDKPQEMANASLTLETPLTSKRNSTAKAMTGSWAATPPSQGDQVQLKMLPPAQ

Key:
human GPR4 [1] = molecular target: T1, human GPR4 (Homo sapiens (Human), UniProt P46093); test: Human GPR4 binding assay with additional human serum albumin (4% HSA); conditions: binding assay with 4% HSA
Description: Cells were grown in T175 flasks to a density of about 1×10^6 cells/mL in growth medium. The cells were harvested by centrifugation (3000 rpm for 30 minutes at 4° C.) and the pellet resuspended in ice cold buffer A (20 mM HEPES pH 7.8, 10 mM EDTA, 100 mM NaCl, 1 tab/40 mL protease inhibitor complete). […] The homogenate was centrifuged at 18000 rpm for 50 min at 4° C. and the membrane protein pellet resuspended in cold buffer A using the Polytron (2×20 seconds). The protein concentration is determined using the Bio Rad Protein Assay and human IgG as standard. The volume of the membrane protein suspension is adjusted to a final concentration of about 2 mg protein/mL. The suspension is then once again homogenized (Polytron) on ice at 25000 rpm for 20 seconds before being aliquoted and stored at −80° C.
Radio Ligand Binding Assay: Serial dilutions of compounds (stock in 10 mM DMSO) are prepared by first diluting the compounds in DMSO followed by a 1:50 dilution into assay buffer (10 mM HEPES, pH 8.0, 100 mM NaCl, 5 mM MgCl2, 1 mM CaCl2, 0.5% fatty acid-free BSA, 0.05% Tween-20). […] The desired amount of membranes (20 μg/well) is diluted with assay buffer. […] 100 μL of the membrane-suspension is added and the plate stirred for 60 minutes. […] The filter plate is washed 5 times with ice-cold wash buffer, dried and sealed at the bottom. Then 20 μL of Microscint 40 is added into each well and the top of the plate is sealed. Finally the plate is counted for 2 min/well in a TopCount NXT instrument (Packard Instruments). The data are analyzed using the GraphPad Prism™ software.
In a similar manner, a binding assay with additional human serum albumin (4% HSA) has been established.

human GPR4 [2] = molecular target: T1, human GPR4; test: Cell-based assay for human GPR4 activity (pH-induced cAMP formation, HTRF, HeLa cells); conditions: HeLa cells stably expressing human GPR4, pH-induced cAMP
Description: b) Cell-Based Assay for Human GPR4 Activity
HeLa cells stably expressing human GPR4 were established by transfecting the cells with a construct containing the human GPR4 coding sequence. The cells were grown in Dulbecco's Modified Eagle Medium (DMEM)/HAM's tissue culture medium F12 (HAM's F12) supplemented with 10% fetal calf serum (FCS), 100 u/ml penicillin, 100 μg/ml streptomycin and 400 μg/ml G418 and 10 mM Hepes pH 8.0. pH-induced formation of cAMP was determined using the homogeneous time resolved fluorescence (HTRF) technology as provided by CisBio Inc. The cells were seeded in 384-well plates and cultured for 24 hours at 37° C., 5% CO2 before performing the assay. Medium was removed and 10 μl buffer A (Hepes buffered saline (HBS), 10 mM Hepes, pH 8, 2 mM 3-Isobutyl-1-methylxanthin (IBMX)) was added. For compound testing, buffer A with 2× concentrated compounds was used. Cells were incubated for 15 min at room temperature. 10 μl buffer B (HBS, 30 mM Hepes, specific pH) was added to reach the appropriate final pH for stimulation (see below) and incubation was continued for 15 min at room temperature. […] HBS: 130 mM NaCl, 0.9 mM NaH2 PO4, 5.4 mM KCl, 0.8 mM MgSO4, CaCl2 1.8 mM, 25 mM glucose, 10-30 mM Hepes. Adjustment of HBS buffers:
Compounds were diluted from fresh stock solutions at 10 mM in DMSO to 2 mM and then used for serial dilutions in DMSO.

[3] = Negative control binding: membranes from parental (non-transfected) 300.19 cells; set-up: species or system murine; conditions: 5 nM radioligand, non-transfected 300.19 membranes
From the text: As negative control, membranes isolated from parental (non-transfected) murine pre-B cell line 300.19 were used.

| SMILES | IC50 (human GPR4 [1]) [µM] | also measured |
| --- | --- | --- |
| CCc1nn2c(C)cc(C)nc2c1Cc1ccc(OCC2CCNCC2)cc1 [Example 21, 2-Ethyl-5,7-dimethyl-3-[4-(piperidin-4-ylmethoxy)-benzyl]-pyrazolo[1,5-a]pyrimidine hydrochloride] | 0.013 |  |
| CCc1nn2c(C)cc(C)nc2c1Cc1ccc(OCC2CCN(C(=O)[C@H]3NCC[C@H]3O)CC2)cc1 [Example 22, {4-[4-(2-Ethyl-5,7-dimethyl-pyrazolo[1,5-a]pyrimidin-3-ylmethyl)-phenoxymethyl]-piperidin-1-yl}-((2S,3R)-3-hydroxy-pyrrolidin-2-yl)-methanone] |  | IC50 (human GPR4 [2]): 0.013 µM |
| CCc1nn2c(C)cc(C)nc2c1Cc1ccc(CCCN2CCN(C(C)C)CC2)cc1 [Example 39, [^3H]4-2-Ethyl-3-{4-[3-(4-isopropyl-piperazin-1-yl)-propyl]-benzyl}-5,7-dimethyl-pyrazolo[1,5-a]pyrimidine] |  | binding signal on parental membranes [3]: background signal was observed only |

More lines, main results first:

| IC50 (human GPR4 [1]) [µM] | SMILES | also measured |
| --- | --- | --- |
| 0.018 | CCc1nn2c(C)cc(C)nc2c1Cc1ccc(/C=C/CC2(O)CCN(C[C@@H](O)CO)CC2)cc1 [Example 6, (R)-3-(4-{(E)-3-[4-(2-Ethyl-5,7-dimethyl-pyrazolo[1,5-a]pyrimidin-3-ylmethyl)-phenyl]-allyl}-4-hydroxy-piperidin-1-yl)-propane-1,2-diol] |  |
| 0.018 | CCc1nn2c(C)cc(C)nc2c1Cc1ccc(-n2cc(CN3CCC(N)CC3)cn2)cc1 [Example 30, 1-{1-[4-(2-Ethyl-5,7-dimethyl-pyrazolo[1,5-a]pyrimidin-3-ylmethyl)-phenyl]-1H-pyrazol-4-ylmethyl}-piperidin-4-ylamine] |  |
